Literature values in patent publication US20230111504A1, “COR[…] AND AVERMECTINS” (Huvepharma EOOD, priority 2020, published 2023).

Sequences of proteins named here, by UniProt entry; tags and fusion partners are left off.
UniProt P05177, whole entry: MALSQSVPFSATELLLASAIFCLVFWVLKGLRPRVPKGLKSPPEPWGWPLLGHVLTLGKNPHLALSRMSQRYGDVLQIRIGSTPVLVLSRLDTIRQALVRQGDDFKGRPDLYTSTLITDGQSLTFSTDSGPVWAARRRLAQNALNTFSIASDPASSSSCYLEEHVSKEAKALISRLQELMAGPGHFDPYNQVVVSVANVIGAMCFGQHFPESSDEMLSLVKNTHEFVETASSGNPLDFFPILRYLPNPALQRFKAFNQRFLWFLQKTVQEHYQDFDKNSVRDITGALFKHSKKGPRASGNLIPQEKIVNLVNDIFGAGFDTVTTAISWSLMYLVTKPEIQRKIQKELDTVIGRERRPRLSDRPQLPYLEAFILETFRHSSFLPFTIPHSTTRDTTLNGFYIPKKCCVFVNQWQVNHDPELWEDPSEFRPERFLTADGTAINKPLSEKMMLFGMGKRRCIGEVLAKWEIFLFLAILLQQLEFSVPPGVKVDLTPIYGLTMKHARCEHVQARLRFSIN

Columns and labels:
[1] = target: T1, CYP1A2 (Homo sapiens, UniProt P05177); conditions: clinically relevant concentrations, human liver microsomes; cited from earlier work
T1 construct: from tissue; host or cells: human liver microsomes

[2] = system: CYP2D6 and CYP2E; conditions: compared to CYP3A4; depending on the in vitro method; cited from earlier work

Substance: ivermectin
- inhibition of metabolizing activity of CYP1A2 [1]: do not significantly inhibit
- involvement of CYP2D6 and CYP2E in metabolism [2]: significantly lower extent
